Measurements: article PMC7450122

B1: USP7 peptide D25 (1007-1024, …) [Homo sapiens (Human).] / GST-p65, purified recombinant [not stated] (parent)
chain 1: MDELFPLIFPAEPAQASGPYVEIIEQPKQRGMRFRYKCEGRSAGSIPGERSTDTTKTHPTIKINGYTGPGTVRISLVTKDPPHRPHPHELVGKDCRDGFYEAELCPDRCIHSFQNLGIQCVKKRDLEQAISQRIQTNNNPFQVPIEEQRGDYDLNAVRLCFQVTVRDPSGRPLRLPPVLSHPIFDNRAPNTAELKICRVNRNSGSCLGGDEIFLLCDKVQKEDIEVYFTGPGWEARGSFSQADVHRQVAIVFRTPPYADPSLQAPVRVSMQLRRPSDRELSEPMEFQYLPDTDDRHRIEEKRKRTYETFKSIMKKSPFSGPTDPRPPPRRIAVPSRSSASVPKPAPQPYPFTSSLSTINYDEFPTMVFPSGQISQASALAPAPPQVLPQAPAPAPAPAMVSALAQAPAPVPVLAPGPPQAVAPPAPKPTQAGEGTLSEALLQLQFDDEDLGALLGNSTDPAVFTDLASVDNSEFQQLLNQGIPVAPHTTEPMLMEYPEAITRLVTGAQRPPDPAPAPLGAPGLPNGLLSGDEDFSSIADMDFSALLSQISS
chain 2: FLLRIHQGEHFREVMKRI
B2: USP7 peptide C17 (…; printed first residue 841, counted here as 845-862) [Homo sapiens (Human).] / GST-p65, purified recombinant [not stated] (parent)
chain 1: B1 chain 1
chain 2: YRDGPGNPLRHNYEGTLR
B3: USP7 peptide E10 (1067-1084, …) [Homo sapiens (Human).] / GST-p65, purified recombinant [not stated] (parent)
chain 1: B1 chain 1
chain 2: PGNMSHPRPWLGLDHFNK
B4: USP7 peptide C15 (837-854, …) [Homo sapiens (Human).] / GST-p65, purified recombinant [not stated] (parent)
chain 1: B1 chain 1
chain 2: LQFFKSQGYRDGPGNPLR
B5: USP7 peptide 753-770 (Ubl2 domain), parent peptide of the alanine scan [not stated] / GST-p65, purified recombinant [not stated] (parent)
chain 1: B1 chain 1
chain 2: LDKALDELMDGDIIVFQK

Variants of: B1
Assay: alanine-scanning peptide array probed with GST-p65, anti-GST immunoblot

Percent of parent (% of parent peptide), < 60:
chain 2 FLLRIHQGEHFREVMKAI
chain 2 FLLRIHQGEAFREVMKRI
chain 2 FLLRIHQGEHFRAVMKRI
chain 2 FLLRIHQGEHAREVMKRI
chain 2 FLLRIHQGEHFREVMKRA

Variants of: B2
Assay: as above

Percent of parent (% of parent peptide), < 60:
chain 2 YRDGPGAPLRHNYEGTLR
chain 2 YRDGPGNPLRHNYEATLR
chain 2 YRDGPGNPLRHNAEGTLR
chain 2 YRDGPGNPLRHAYEGTLR
chain 2 YRDAPGNPLRHNYEGTLR
chain 2 YRDGPGNPLRHNYEGTAR
chain 2 YRDGPGNPLAHNYEGTLR
chain 2 YRDGPGNPARHNYEGTLR
chain 2 YRDGPGNPLRHNYAGTLR
chain 2 YRDGPGNPLRHNYEGTLA
chain 2 YADGPGNPLRHNYEGTLR
chain 2 YRAGPGNPLRHNYEGTLR
chain 2 YRDGPANPLRHNYEGTLR

Variants of: B3
Assay: as above

Percent of parent (% of parent peptide), < 60:
chain 2 PGNMSHPRAWLGLDHFNK
chain 2 PGNMSHPAPWLGLDHFNK
chain 2 PGNMSHPRPWLGLDHFNA
chain 2 PGNMSHPRPWLGLDAFNK
chain 2 PGNMSHPRPALGLDHFNK
chain 2 PGNMSHPRPWLGLAHFNK
chain 2 PGNMSHPRPWLGADHFNK
chain 2 PGNMSHPRPWLGLDHANK

Variants of: B4
Assay: as above

Percent of parent (% of parent peptide), < 60:
chain 2 LQFFKSQGYADGPGNPLR
chain 2 LQFFKSQGYRDGPANPLR
chain 2 LQFFKSQAYRDGPGNPLR
chain 2 LQFFKSQGYRAGPGNPLR
chain 2 LQFFKSQGYRDGPGNPAR
chain 2 LQFFKSQGYRDGPGNPLA
chain 2 LQFFKSQGYRDGPGAPLR
chain 2 LQFFKSQGYRDGAGNPLR

Variants of: B5
Assay: as above

Percent of parent (% of parent peptide), < 60:
chain 2 LDKAADELMDGDIIVFQK
chain 2 LDKALDEAMDGDIIVFQK
chain 2 LDKALAELMDGDIIVFQK
chain 2 LDKALDALMDGDIIVFQK
